Test results taken from IntAct's records for PubMed 22198837.

B1: FACT complex subunit POB3 (Saccharomyces cerevisiae), Q04636 (parent)
chain: MSTDFDRIYLNQSKFSGRFRIADSGLGWKISTSGGSAANQARKPFLLPATELSTVQWSRGCRGYDLKINTKNQGVIQLDGFSQDDYNLIKNDFHRRFNIQVEQREHSLRGWNWGKTDLARNEMVFALNGKPTFEIPYARINNTNLTSKNEVGIEFNIQDEEYQPAGDELVEMRFYIPGVIQTNVDENMTKKEESSNEVVPKKEDGAEGEDVQMAVEEKSMAEAFYEELKEKADIGEVAGDAIVSFQDVFFTTPRGRYDIDIYKNSIRLRGKTYEYKLQHRQIQRIVSLPKADDIHHLLVLAIEPPLRQGQTTYPFLVLQFQKDEETEVQLNLEDEDYEENYKDKLKKQYDAKTHIVLSHVLKGLTDRRVIVPGEYKSKYDQCAVSCSFKANEGYLYPLDNAFFFLTKPTLYIPFSDVSMVNISRAGQTSTSSRTFDLEVVLRSNRGSTTFANISKEEQQLLEQFLKSKNLRVKNEDREVQERLQTALGSDSDEEDINMGSAGEDDESVDEDFQVSSDNDADEVAEEFDSDAALSDAEGGSDEERPSKKPKVE

Variants of: B1
Details: with h3_yeast HHT1

| effect of a mutation on the interaction | Variant |
| --- | --- |
| disrupting interaction strength | F249E |
| increasing interaction strength | Q308K |
| disrupting interaction strength | T252E |
| disrupting interaction strength | T251E |
